The assay deals with C. jejuni strain H840. The experiment in a line: MIC determination, liquid microdilution, C. jejuni. The class given is cell-based. Particulars: Campylobacter jejuni, H840, 27 h, read-out: MIC C. jejuni.

Converted amounts (≈) assume the structure as drawn.

For `O=C(Nc1ncc([N+](=O)[O-])s1)c1ccc(Cl)s1` [Analogue 77, 5-Chloro-N-(5-nitrothiazol-2-yl)thiophene-2-carboxamide], the MIC is 6.9 µM (≈ 2 µg/mL).

For the origin of these results see PMC3089805 (Chemmedchem, 2010).
